The source of these data is patent US7071206B2, “Agents for treating neurodegenerative disorders” (Medivation, Inc., priority 1995, dated 2006).

This experiment deals with NMDA receptor. Put plainly: Anti-NMDA activity: prevention of convulsions and death caused by NMDA injected into the lateral ventricle of the brain. The class given is in vivo. Conditions: mice; i.p. 40 minutes before NMDA 0.1 μg into the lateral ventricle; probit analysis. As for the experimental part:
The experiment was conducted in white non-inbred male mice of 20–24 g of weight. A solution of the test agent in 0.2 ml of 5% aqueous dimethylsulfoxide was injected intraperitoneally 40 minutes before the injection of NMDA into the lateral vehicle of the brain. For the mice that had been prepared beforehand for the experiment a skin flap on the head of each mouse was removed under ether anestesia and a hole was bored in the skull by a fine drill. NMDA (0.1 μg) in a volume of 1.4 μl was injected with a microsyringe. The microsyringe needle was immersed to a depth of 2.5 mm. After the operation, the wound was treated with a 2% novocaine solution. […] The accuracy of NMDA injection was monitored by injection of methylene blue. Two to 4 hours after the operation, the mice were used for a pharmacological experiment.
The animals inoculated with a saline solution were used as control.
Each dose of the agent was tested in a croup of 6–8 animals. The ED50 value (the dose of the agent preventing the development of convulsions and the death of 50% of the animals) was determined by a probit-analysis method (Litchfild J. T., Wicoxon F. J.—Pharmacol. Exp. Therap., 1949, v. 96, p. 99–114).

With `Cc1ccc2c(c1)[C@H]1CN(C)CC[C@H]1N2` (racemic) [No. 4, cis(±)2,8-dimethyl-2,3,4,4a,5,9b-hexahydro-1H-pyrido[4,3-b]indole], the “ED50 (dose preventing the development of convulsions and the death of 50% of the animals)” value is 31 ± 7 mg/kg.
